Assay results as given in ChEMBL document CHEMBL3862026, “Synthesis and biological evaluation of ranitidine analogs as multiple-target-directed cognitive enhancers for the treatment of Alzheimer's disease” (Bioorg Med Chem Lett, 2016).

The chains behind the UniProt entries cited, without tags or fusion partners.
UniProt P81908, whole entry: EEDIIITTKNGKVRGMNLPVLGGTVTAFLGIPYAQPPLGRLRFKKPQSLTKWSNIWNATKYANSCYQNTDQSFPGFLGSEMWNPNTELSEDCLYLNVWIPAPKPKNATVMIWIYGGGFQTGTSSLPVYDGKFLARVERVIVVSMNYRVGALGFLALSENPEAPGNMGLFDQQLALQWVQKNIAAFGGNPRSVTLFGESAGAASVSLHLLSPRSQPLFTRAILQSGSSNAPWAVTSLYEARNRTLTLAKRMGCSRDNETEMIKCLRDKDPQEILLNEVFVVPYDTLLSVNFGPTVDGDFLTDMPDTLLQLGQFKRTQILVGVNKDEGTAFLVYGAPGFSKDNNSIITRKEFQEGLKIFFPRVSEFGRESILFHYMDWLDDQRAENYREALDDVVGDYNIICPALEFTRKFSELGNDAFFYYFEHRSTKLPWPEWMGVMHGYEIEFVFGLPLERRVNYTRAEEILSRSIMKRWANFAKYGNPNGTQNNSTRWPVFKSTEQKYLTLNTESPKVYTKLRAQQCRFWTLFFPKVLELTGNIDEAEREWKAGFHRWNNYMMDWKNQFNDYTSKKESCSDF

Target: Cholinesterase (Equus caballus, UniProt P81908)
Assay: Inhibition of equine serum BuChE using butyrylthiocholine as substrate preincubated for 8 mins followed by substrate addition by Ellman's method

**Q.** Which IC50 does the source give for CN(C)Cc1ccc(CSCCNc2nnccc2[N+](=O)[O-])o1 here?
**A.** The IC50 was 10 µM.
